The target of one test is T1, DOPr (Homo sapiens, UniProt P41143).
T1 construct: host or cells: CHO
Kind of test: biochemical. Particulars: read-out: DOPr Emax ±SEM.

Sequences of proteins named here, by UniProt entry; tags and fusion partners are left off. A change or cut given only in a name is not applied to a line headed by its entry.
UniProt P41143, whole entry: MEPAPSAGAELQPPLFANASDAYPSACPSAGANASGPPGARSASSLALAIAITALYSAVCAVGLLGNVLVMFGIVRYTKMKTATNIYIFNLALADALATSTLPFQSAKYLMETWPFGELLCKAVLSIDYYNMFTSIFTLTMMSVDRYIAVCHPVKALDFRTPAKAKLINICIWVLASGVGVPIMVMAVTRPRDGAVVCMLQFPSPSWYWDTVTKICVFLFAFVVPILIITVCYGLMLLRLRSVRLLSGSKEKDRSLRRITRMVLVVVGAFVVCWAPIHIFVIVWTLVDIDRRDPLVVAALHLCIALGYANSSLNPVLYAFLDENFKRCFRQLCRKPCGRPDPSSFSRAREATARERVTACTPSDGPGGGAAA
UniProt P41145: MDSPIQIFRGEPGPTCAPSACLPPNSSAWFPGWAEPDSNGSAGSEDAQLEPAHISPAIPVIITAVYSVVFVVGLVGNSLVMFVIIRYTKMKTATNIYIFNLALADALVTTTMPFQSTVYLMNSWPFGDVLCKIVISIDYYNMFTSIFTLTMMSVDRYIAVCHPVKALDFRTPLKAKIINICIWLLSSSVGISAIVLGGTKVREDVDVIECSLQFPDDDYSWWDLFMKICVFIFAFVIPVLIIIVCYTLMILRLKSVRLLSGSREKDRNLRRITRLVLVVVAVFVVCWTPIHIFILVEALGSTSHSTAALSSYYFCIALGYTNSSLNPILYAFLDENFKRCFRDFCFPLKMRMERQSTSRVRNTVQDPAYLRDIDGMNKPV
UniProt P35372, whole entry: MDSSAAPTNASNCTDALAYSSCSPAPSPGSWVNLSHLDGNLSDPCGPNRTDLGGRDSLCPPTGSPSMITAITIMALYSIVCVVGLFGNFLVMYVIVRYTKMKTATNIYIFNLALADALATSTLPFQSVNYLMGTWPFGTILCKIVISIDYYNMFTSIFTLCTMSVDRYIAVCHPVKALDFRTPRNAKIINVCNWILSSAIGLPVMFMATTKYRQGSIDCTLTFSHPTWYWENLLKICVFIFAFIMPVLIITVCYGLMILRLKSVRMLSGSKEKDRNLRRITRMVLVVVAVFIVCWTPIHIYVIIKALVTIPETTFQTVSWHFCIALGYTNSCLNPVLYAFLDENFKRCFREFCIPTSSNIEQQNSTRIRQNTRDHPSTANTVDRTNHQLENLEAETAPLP

Test [1] has as its target T2, KOPr (Homo sapiens, UniProt P41145). The note with it: read-out: KOPr EC50 ± SEM; cited from earlier work.
In a further test the target is MOPr (Homo sapiens, UniProt P35372). The note with it: cited from earlier work.
Test [2] concerns the target T2, KOPr. On the set-up: host or cells: CHO. Particulars: read-out: Ki (±SEM, nM) KOPr; cited from earlier work.

Some results are limits rather than exact numbers.

For `CC(C)[C@H](NC(=O)[C@H](CCC(=O)O)NC(=O)[C@H](Cc1ccccc1)NC(=O)[C@@H](C)NC(=O)[C@@H](N)Cc1ccc(O)cc1)C(=O)N[C@H](C(=O)NCC(N)=O)C(C)C` [Deltorphin-II, reference compound], the Emax (in general, the size of the effect at its maximum, as opposed to the concentration needed) at DOPr worked out at 100%.

Regarding `COc1ccc2c3c1O[C@H]1C(=O)CC[C@@]4(O)[C@@H](C2)N(C)CC[C@]314` [oxycodone], the 50% effective concentration (EC50) (usually the concentration needed to bring the measured effect to its halfway point) at KOPr [1] is above 2000 nM. Further, the “MOPr Emax ±SEM” value on MOPr is reported as 98 ± 6%. Further, the Ki (usually a measure of affinity in units of concentration, obtained from inhibition or displacement) at KOPr [2] was above 2000 nM.

The values above are taken from paper PMC10352325, “Nitro-benzylideneoxymorphone, a bifunctional mu and delta opioid receptor ligand with high mu opioid receptor efficacy” (Frontiers in Pharmacology, 2023).
